Source: patent US10426772B2, “Use of ergot alkaloids as an anthelmintic agent” (priority 2016, dated 2019)

Chains of the proteins cited; added tags and fusions are not shown. Residues count along the entry.
UniProt P34969, 1-445 isoform P34969-2: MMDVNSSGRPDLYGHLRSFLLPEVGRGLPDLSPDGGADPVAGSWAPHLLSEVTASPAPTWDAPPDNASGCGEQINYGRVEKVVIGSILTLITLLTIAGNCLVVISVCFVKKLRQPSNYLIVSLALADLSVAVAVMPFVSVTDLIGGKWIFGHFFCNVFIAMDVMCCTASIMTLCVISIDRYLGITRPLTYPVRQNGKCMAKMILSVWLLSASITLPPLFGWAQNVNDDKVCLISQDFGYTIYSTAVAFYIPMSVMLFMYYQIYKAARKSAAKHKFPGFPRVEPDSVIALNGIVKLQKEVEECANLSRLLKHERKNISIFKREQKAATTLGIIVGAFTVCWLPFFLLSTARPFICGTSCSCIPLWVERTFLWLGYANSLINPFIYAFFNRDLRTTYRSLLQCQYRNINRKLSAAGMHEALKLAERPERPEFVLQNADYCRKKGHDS

Target: T1, Hs.5HT7R (Homo sapiens, UniProt P34969)
T1 construct: host or cells: HEK293 (ATCC CRL-1573.3), transient, pCS2(−), co-transfected with GloSensor
Assay: GloSensor cAMP assay, HEK293 cells transiently transfected with Hs.5HT7R
Assay type: cell-based
Conditions: FIG. 7
Description: HEK293 cells (ATCC CRL-1573.3) were cultured in DMEM supplemented with 10% fetal bovine serum (FBS), penicillin (100 units/mL), streptomycin (100 μg/mL), and L-glutamine (290 μg/mL). Cells were transiently transfected (ViaFect, Promega) as per the manufacturer's protocol at a density of 2×10^6 cells per T-25 cell-culture flask. Cells were transfected with plasmids encoding GloSensor (Promega) and either Sm.5HTR, (Smp_126730, GenBank accession number KF444051.1) or Sm.5HTRL (KX150867), both GPCRs being codon optimized for mammalian expression, or Hs.5HT7a (GenBank accession number NM_000872.4, R&D Systems) subcloned into pCS2(−). Cell culture reagents were from Invitrogen. Epitope tagged constructs were used to verify expression, and untagged constructs used for all luminescence assays.
For assays performed on adherent cells, HEK-293 cells were transferred one day post transfection to 96 well, solid white plates (Corning, cat #3917) coated with 0.01% poly-L-lysine (Sigma Aldrich) at a density of 5×10^4 cells/well in DMEM supplemented with 1% dialyzed FBS (Gibco). […] Plates were allowed to equilibrate at room temperature for two hours prior to performing luminescence assays (GloMax-Multi Detection System plate reader, Promega). […]
The protocol for screening is shown schematically in FIG. 5A. […] Luminescence was then read at a fixed time point (t=60 minutes, FIG. 5A). […]

SMILES: CC1CCN(CC[C@H]2CCCN2S(=O)(=O)c2cccc(O)c2)CC1 [SB269970]
- inhibition of Hs.5HT7R, in words: potent inhibitors of Hs.5HT7R
